One molecule from publication PMC7856035 (Neuropharmacology, 2020) can be followed below.

Protein sequences, listed by entry. Tags and fused reporters are not part of them. Lines headed by an entry give the natural chain unless they say otherwise; changes in a name come on top.
UniProt Q62758: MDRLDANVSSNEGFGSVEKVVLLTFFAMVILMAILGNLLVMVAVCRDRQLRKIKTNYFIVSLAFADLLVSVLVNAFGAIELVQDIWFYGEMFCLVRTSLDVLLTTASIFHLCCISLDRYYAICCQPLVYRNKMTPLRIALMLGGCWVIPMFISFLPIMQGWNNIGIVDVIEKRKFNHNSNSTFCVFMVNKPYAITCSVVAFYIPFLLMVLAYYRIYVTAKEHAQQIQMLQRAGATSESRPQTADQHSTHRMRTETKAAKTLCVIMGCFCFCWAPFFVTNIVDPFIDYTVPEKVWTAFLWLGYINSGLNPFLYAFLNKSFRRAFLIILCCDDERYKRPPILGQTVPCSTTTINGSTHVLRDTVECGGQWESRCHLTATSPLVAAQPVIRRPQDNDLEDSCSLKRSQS

What is called EC50 is the midpoint of the concentration-response curve. Read a high EC50 as lower potency in that assay.

The target of the assay is 5-HT4 receptor (Rattus norvegicus, UniProt Q62758).

`NCCc1c[nH]c2ccc(O)cc12` [5-HT, serotonin] returned an EC50 of 4.53 nM.
